Experimental data: patent US4637999A, “Substituted cephalosporins as anti-inflammatory and antidegenerative agents” (Merck & Co., Inc., priority 1983, dated 1987)

Chains of the proteins cited; added tags and fusions are not shown. Residues count along the entry.
UniProt P08246, 30-267 limits assumed: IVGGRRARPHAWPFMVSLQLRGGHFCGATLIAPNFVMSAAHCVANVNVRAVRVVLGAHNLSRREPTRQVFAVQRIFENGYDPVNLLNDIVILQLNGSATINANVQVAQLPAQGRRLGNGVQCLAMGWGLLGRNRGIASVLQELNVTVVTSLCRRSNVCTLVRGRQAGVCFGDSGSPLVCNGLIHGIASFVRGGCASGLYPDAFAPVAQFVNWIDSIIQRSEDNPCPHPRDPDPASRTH

Biological target: Human Polymorphonuclear Leukocyte Elastase (Homo sapiens, UniProt P08246)
Conditions: read-out: ED50; 50% inhibition of enzyme activity 2 minutes after zero time; crude PMN extract, 0.2 mM Boc-AAPAN, pH 7.5, 410 mμ

SMILES: CC(=O)OCC1=C(C(=O)OC(C)(C)C)N2C(=O)[C@H](Cl)[C@H]2SC1
- IC50: 1440 nM
